# CycPeptMPDB entries from one study

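The data file gives no further conditions (lipid, pH, time, direction or concentration), and values from different papers need not be comparable. The list need not hold all peptides of the study. Peptides that the database sets to -10, its floor, are left out.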

PAMPA measures passive passage through an artificial lipid membrane.
Values are log10 P with P in cm/s, so -5 is more permeable than -7.

| structure (SMILES) | PAMPA (log10 cm/s) |
|---|---|
| CC(=O)N1CCC[C@@H]1C(=O)N(C)[C@@H](CC(C)C)C(=O)N[C@@H]1C(=O)N[C@@H](CC(C)C)C(=O)N[C@@H](CC(C)C)C(=O)N[C@H](CC(C)C)C(=O)N[C@@H](C)C(=O)N[C@@H](CC(C)C)C(=O)N2CCC[C@H]2C(=O)O[C@@H]1C | -6.84 |
| CC(=O)N1CCC[C@@H]1C(=O)N(C)[C@@H](CC(C)C)C(=O)N[C@@H]1C(=O)N[C@@H](CC(C)C)C(=O)N[C@@H](CC(C)C)C(=O)N[C@@H](CC(C)C)C(=O)N(C)[C@H](C)C(=O)N[C@@H](CC(C)C)C(=O)N2CCC[C@H]2C(=O)O[C@@H]1C | -6.04 |
| CC(=O)N1CCC[C@@H]1C(=O)N(C)[C@@H](CC(C)C)C(=O)N[C@@H]1C(=O)N[C@H](CC(C)C)C(=O)N(C)[C@@H](CC(C)C)C(=O)N[C@H](CC(C)C)C(=O)N(C)[C@H](C)C(=O)N[C@@H](CC(C)C)C(=O)N2CCC[C@@H]2C(=O)O[C@@H]1C | -5.17 |
| CC(=O)N1CCC[C@@H]1C(=O)N(C)[C@H](CC(C)C)C(=O)N[C@@H]1C(=O)N[C@H](CC(C)C)C(=O)N[C@@H](CC(C)C)C(=O)N[C@@H](CC(C)C)C(=O)N(C)[C@H](C)C(=O)N[C@@H](CC(C)C)C(=O)N2CCC[C@H]2C(=O)O[C@@H]1C | -5.92 |
| CC(=O)N1CCC[C@H]1C(=O)N(C)[C@@H](CC(C)C)C(=O)N[C@@H]1C(=O)N[C@@H](CC(C)C)C(=O)N[C@@H](CC(C)C)C(=O)N[C@@H](CC(C)C)C(=O)N(C)[C@@H](C)C(=O)N[C@@H](CC(C)C)C(=O)N2CCC[C@H]2C(=O)O[C@@H]1C | -6.82 |
| CC(=O)N1CCC[C@H]1C(=O)N(C)[C@@H](CC(C)C)C(=O)N[C@@H]1C(=O)N(C)[C@@H](CC(C)C)C(=O)N(C)[C@H](CC(C)C)C(=O)N[C@H](CC(C)C)C(=O)N(C)[C@@H](C)C(=O)N[C@@H](CC(C)C)C(=O)N2CCC[C@H]2C(=O)O[C@@H]1C | -6.02 |
| CC(=O)N1CCC[C@H]1C(=O)N(C)[C@H](CC(C)C)C(=O)N[C@@H]1C(=O)N[C@@H](CC(C)C)C(=O)N[C@@H](CC(C)C)C(=O)N[C@@H](CC(C)C)C(=O)N(C)[C@@H](C)C(=O)N[C@H](CC(C)C)C(=O)N2CCC[C@H]2C(=O)O[C@@H]1C | -6.21 |
| CC(=O)N1CCC[C@@H]1C(=O)N(C)[C@@H](CC(C)C)C(=O)N[C@@H]1C(=O)N(C)[C@H](CC(C)C)C(=O)N[C@@H](CC(C)C)C(=O)N(C)[C@@H](CC(C)C)C(=O)N[C@@H](C)C(=O)N[C@@H](CC(C)C)C(=O)N2CCC[C@H]2C(=O)O[C@@H]1C | -5.62 |
| CC(=O)N1CCC[C@H]1C(=O)N(C)[C@@H](CC(C)C)C(=O)N[C@@H]1C(=O)N(C)[C@@H](CC(C)C)C(=O)N(C)[C@@H](CC(C)C)C(=O)N[C@@H](CC(C)C)C(=O)N(C)[C@H](C)C(=O)N[C@H](CC(C)C)C(=O)N2CCC[C@@H]2C(=O)O[C@@H]1C | -5.89 |
| CC(=O)N[C@@H]1C(=O)N2CCC[C@H]2C(=O)N(C)[C@H](CC(C)C)C(=O)N[C@H](CC(C)C)C(=O)N[C@H](CC(C)C)C(=O)N(C)[C@@H](CC(C)C)C(=O)N(C)[C@@H](C)C(=O)N[C@@H](CC(C)C)C(=O)N2CCC[C@@H]2C(=O)O[C@@H]1C | -6.24 |
| CC(=O)N1CCC[C@H]1C(=O)N(C)[C@H](CC(C)C)C(=O)N[C@@H]1C(=O)N(C)[C@@H](CC(C)C)C(=O)N(C)[C@H](CC(C)C)C(=O)N(C)[C@@H](CC(C)C)C(=O)N(C)[C@H](C)C(=O)N[C@@H](CC(C)C)C(=O)N2CCC[C@@H]2C(=O)O[C@@H]1C | -5.41 |
| CC(=O)N1CCC[C@H]1C(=O)N(C)[C@@H](CC(C)C)C(=O)N[C@@H]1C(=O)N(C)[C@H](CC(C)C)C(=O)N[C@H](CC(C)C)C(=O)N(C)[C@H](CC(C)C)C(=O)N[C@@H](C)C(=O)N[C@@H](CC(C)C)C(=O)N2CCC[C@@H]2C(=O)O[C@@H]1C | -6.96 |
| CC(=O)N1CCC[C@H]1C(=O)N(C)[C@H](CC(C)C)C(=O)N[C@@H]1C(=O)N[C@@H](CC(C)C)C(=O)N[C@@H](CC(C)C)C(=O)N(C)[C@@H](CC(C)C)C(=O)N[C@@H](C)C(=O)N[C@H](CC(C)C)C(=O)N2CCC[C@@H]2C(=O)O[C@@H]1C | -6.06 |
| CC(=O)N1CCC[C@@H]1C(=O)N(C)[C@@H](CC(C)C)C(=O)N[C@@H]1C(=O)N(C)[C@@H](CC(C)C)C(=O)N[C@H](CC(C)C)C(=O)N[C@H](CC(C)C)C(=O)N(C)[C@H](C)C(=O)N[C@H](CC(C)C)C(=O)N2CCC[C@@H]2C(=O)O[C@@H]1C | -6.19 |
| CC(=O)N1CCC[C@H]1C(=O)N[C@@H]1C(=O)N[C@H](CC(C)C)C(=O)N(C)[C@@H](CC(C)C)C(=O)N(C)[C@@H](CC(C)C)C(=O)N(C)[C@H](CC(C)C)C(=O)N(C)[C@H](C)C(=O)N[C@@H](CC(C)C)C(=O)N2CCC[C@@H]2C(=O)O[C@@H]1C | -5.09 |
| CC(=O)N1CCC[C@H]1C(=O)N(C)[C@@H](CC(C)C)C(=O)N[C@@H]1C(=O)N(C)[C@@H](CC(C)C)C(=O)N(C)[C@H](CC(C)C)C(=O)N(C)[C@H](CC(C)C)C(=O)N(C)[C@@H](C)C(=O)N[C@H](CC(C)C)C(=O)N2CCC[C@@H]2C(=O)O[C@@H]1C | -5.84 |
| CC(=O)N1CCC[C@H]1C(=O)N(C)[C@H](CC(C)C)C(=O)N[C@@H]1C(=O)N[C@@H](CC(C)C)C(=O)N(C)[C@H](CC(C)C)C(=O)N[C@H](CC(C)C)C(=O)N(C)[C@H](C)C(=O)N[C@H](CC(C)C)C(=O)N2CCC[C@H]2C(=O)O[C@@H]1C | -6.21 |
| CC(=O)N1CCC[C@H]1C(=O)N(C)[C@H](CC(C)C)C(=O)N[C@@H]1C(=O)N[C@H](CC(C)C)C(=O)N[C@H](CC(C)C)C(=O)N[C@H](CC(C)C)C(=O)N(C)[C@H](C)C(=O)N[C@H](CC(C)C)C(=O)N2CCC[C@H]2C(=O)O[C@@H]1C | -6.52 |
| CC(=O)N1CCC[C@H]1C(=O)N(C)[C@@H](CC(C)C)C(=O)N[C@@H]1C(=O)N[C@@H](CC(C)C)C(=O)N(C)[C@H](CC(C)C)C(=O)N[C@H](CC(C)C)C(=O)N[C@@H](C)C(=O)N[C@@H](CC(C)C)C(=O)N2CCC[C@H]2C(=O)O[C@@H]1C | -6.68 |

2 of these entries, quoted again:

| structure (SMILES) | PAMPA (log10 cm/s) |
|---|---|
| CC(=O)N1CCC[C@@H]1C(=O)N(C)[C@H](CC(C)C)C(=O)N[C@@H]1C(=O)N[C@H](CC(C)C)C(=O)N[C@@H](CC(C)C)C(=O)N[C@@H](CC(C)C)C(=O)N(C)[C@H](C)C(=O)N[C@@H](CC(C)C)C(=O)N2CCC[C@H]2C(=O)O[C@@H]1C | -5.92 |
| CC(=O)N1CCC[C@H]1C(=O)N(C)[C@H](CC(C)C)C(=O)N[C@@H]1C(=O)N[C@@H](CC(C)C)C(=O)N[C@@H](CC(C)C)C(=O)N(C)[C@@H](CC(C)C)C(=O)N[C@@H](C)C(=O)N[C@H](CC(C)C)C(=O)N2CCC[C@@H]2C(=O)O[C@@H]1C | -6.06 |

Values of Kelly et al. 2021, doi:10.1021/jacs.0c06115, as listed in CycPeptMPDB.